Measured values as given in patent publication US20230218773A1 (priority 2020, published 2023).

Key:
MIA PaCa2 cells = assay: MTT assay, MIA PaCa2 cells; assay type: cell-based, human; conditions: MIA PaCa-2 cells
Excerpt: Cell lines and culture: Human pancreatic cancer cell line MIA PaCa2 cells and primary umbilical vein endothelial cells (HUVEC) were purchased from American Type Culture Collection (ATCC). Human pancreatic cancer cell line PANC1 cells were kindly provided by Dr. Zhengrong Cui (College of Pharmacy, The University of Texas at Austin). Mouse mT4-2D pancreatic cancer cell line, which is derived from a Kras^+/LSL-G12DTp53^+/LSL-R172HPdx1-Cre transgenic model of pancreatic cancer, was kindly provided by Dr. Kyaw Aung (Livestrong Cancer Institutes, Dell Medical School, The University of Texas at Austin). MIA PaCa2 cells, PANC1, and mT4-2D cells were maintained in Dulbecco's […] with high glucose (Corning). Cell culture medium was supplemented with 10% fetal bovine serum (Gibco) and 100 U/mL penicillin-streptomycin (Gibco). HUVEC cells were maintained according to protocol provided by ATCC. All cells were maintained at 37° C. in a humidified atmosphere with 5% carbon dioxide.
MTT Assay: Cells were seeded in 96 well plates at a density of 5,000 cells/well. […] After the formazan crystals were completely dissolved, the absorbance at 570 nm was read by a plate reader (Infinite®200 Pro, Tecan). Cell survival rate was calculated as follows: […]
The IC50 (half maximal inhibitory concentration) was calculated using GraphPad Prism 8.

[1] = Tissue distribution of free and total MMAE in MIA PaCa2 tumor-bearing mice; assay type: in vivo; conditions: for free MMAE in the liver and kidney: no statistical difference to MMAE group
Method: Quantification of MMAE by LC-MS: An Agilent 1260 Infinity liquid chromatography system (G1312B) with an Agilent 6530 Q-TOF mass spectrometer was used to detect the drug MMAE. 5 μL of sample was injected into an Eclipse Plus C18 column (50×2.1 mm, 5 μm) followed by a gradient elution at 0.7 mL/min. […] Electrospray ionization source was used in positive mode. To derive standard curves for MMAE, drug standards were spiked into blank matrix along with internal standard. Samples were then prepared for LC-MS analysis. MMAE was monitored at m/z 740 [M+Na]+, 719 [M+H]+, 371 [M+Na+1-1]^2+ and 360 [M+2H]^2±. Deuterated (D8) MMAE as internal standard was monitored at m/z 748 [M+Na]+, 727 [M+H]+, 375 [M+Na+1-1]^2+ and 364 [M+2H]^2±. The peak area of each drug standard was derived by the peak area of internal standard. The peak area ratios were then plotted as a function of standard concentrations and data points were fitted using linear regression (GraphPad). MMAE concentrations in test samples were quantified using the peak area ratio between MMAE and D8-MMAE and calculated using the standard curves.
Pharmacokinetics and tissue distribution: Thirty-six mice bearing MIA PaCa2 tumors were equally divided into 4 groups. […] All treatment arms were dosed with an equivalent amount of MMAE at 0.5 mg/kg. At 10 min, 24 h, 48 h, 72 h, 96 h and 168 h post-administration, blood samples were collected from 3 mice in each group through tail vein. Plasma was separated immediately using BD microtainer. At 24 h, 72 h and 168 h after administration, 3 mice from each group were euthanized to collect liver, kidney, and tumor tissue samples. Plasma and tissue samples were stored at −80° C. until further analysis.
To determine the amount of free MMAE in plasma samples, 1 μL D8-MMAE (250 ng/mL) internal control was added into 10 μL plasma samples and then mixed with 89 μL acetonitrile. The mixture was thoroughly mixed and centrifuged (12,000 rpm, 20 min, 4° C.). The supernatant was collected for LC-MS quantification. To determine free MMAE in mouse tissues, weighed tissues were homogenized with ice-cold PBS containing protease inhibitors (cOmplete™ ULTRA Tablets, Roche) using a tissue homogenizer (Fisher Scientific) to a final concentration of 600 mg/mL. The homogenized suspension was centrifuged at 12,000 rpm for 20 min at 4° C. As an internal control, 1 μL D8-MMAE (250 ng/mL) was added into 20 μL of the supernatant and then mixed with 79 μL acetonitrile. After the mixture was mixed and centrifuged, the supernatant was collected for LC-MS for quantification.
To determine total MMAE (i.e. cleaved MMAE and albumin-conjugated MMAE) in plasma and tissues, a forced degradation was done to completely release conjugated MMAE present in plasma and tissue samples.[25] Briefly, freshly prepared papain (Sigma-Aldrich) was added to plasma and tissue samples at a final concentration of 2 mg/mL, and the mixtures were incubated at 40° C. for 16 hours. The resulting samples were treated as method described above for LC-MS quantification.

[2] = Maximum tolerated dose in healthy athymic NCr nude mice; assay type: in vivo; conditions: MMAE equivalent dose, every 4 days, 4 doses; body weight change within 20%
Method: Maximum tolerated dose: All animal experiments were approved and performed under the guidelines by the Institutional Animal Care and Use Committee at. The University of Texas at Austin. […] Mice were injected every 4 days for a total of 4 repeated doses. Body weight and general appearance of each mice were monitored for 10 days after the last dose of injection.

MIA PaCa2 xenografts = assay: In vivo antitumor efficacy, MIA PaCa2 xenografts; set-up: species or system mice; conditions: for median survival of tumor-bearing mice: 0.5 mg/kg equivalent to MMAE
Method: Tumor-bearing mouse models: Eight to ten week old athymic female NCr nude mice and C57BL/6 mice (Taconic) were used to establish xenograft mouse model and syngeneic mouse model, respectively. MIA PaCa2 and mT4-2D cells were harvested from culture and resuspended in serum free cell culture media at 4×10^7 cells/mL and 1×10^7 cells/mL, respectively. The cell suspension was then gently mixed with equal volume of Matrigel® (Corning). Subsequently, 100 μL of each mixed cell suspension (MIA PaCa2 and mT4-2D) was subcutaneously inoculated into both flanks of NCr nude mice and C57BL/6 mice, respectively. After the tumors were palpable, tumor volumes were measured two times a week. The tumor volume was calculated as (1/2×length×[…]).
In vivo antitumor efficacy: Mice bearing MIA PaCa2 xenografts and syngeneic mT4-2D C57BL/6 mice were randomized when the tumor sizes were ˜150 mm^3, respectively. […] PBS and albumin vehicle controls were also administered. […] Tumor sizes were measured by a digital caliper twice a week starting from Day 0. Mice were euthanized when either tumor volume exceeded 1500 mm^3.
Statistical analysis: All of the experiments were repeated at least three times. Statistical significance was calculated using two-way ANOVA followed by Tukey's test. Survival curve was analyzed by log-rank test using GraphPad Prism 8 software.

[3] = 24 hours after single dose, 0.5 mg/kg MMAE

Substance: ALDC3: albumin-drug conjugate of MMAE drug-linker on TCEP-reduced recombinant serum albumin, drug to albumin ratio of 3
- IC50 (in words), higher than free MMAE (MIA PaCa2 cells): μM toxicity
- accumulation of free MMAE in tumor compared to MMAE group ([1]; 24 hours after single dose): did not improve
- total MMAE in tumor [1, 3]: 1.6 % ID/g
- free MMAE in the liver and kidney ([1]; 24 hours after single dose): low levels
- maximum tolerated dose [2]: approximately 0.5 mg/kg
- median survival of tumor-bearing mice (MIA PaCa2 xenografts; every 4 days, 4 doses): 53 days

Substance: ALDC1: albumin-drug conjugate: MMAE via mc-vc-pab linker on Cys34 of recombinant human serum albumin, drug to albumin ratio of 1
- IC50 (in words), higher than free MMAE (MIA PaCa2 cells): μM toxicity
- amount of free MMAE in tumor compared to the MMAE group ([1]; 24 hours after single dose): about 2 fold
- accumulation of free MMAE in tumor [1, 3]: 2.6 % ID/g
- total MMAE in liver [1, 3]: 0.2 % ID/g
- total MMAE in tumor [1, 3]: 3.8 % ID/g
- free MMAE in the liver and kidney ([1]; 24 hours after single dose): low levels
- higher exposure of free MMAE in tumor (AUC0-168 h) compared to ALDC3 group ([1]; tumor AUC0-168 h): ~1.5 fold
- higher exposure of total MMAE in tumor (AUC0-168 h) compared to ALDC3 group ([1]; tumor AUC0-168 h): about 2 fold
- more exposure of free MMAE in tumor (AUC0-168 h) compared to MMAE-MAL group ([1]; tumor AUC0-168 h): ~10%
- more exposure of total MMAE in tumor (AUC0-168 h) compared to MMAE-MAL group ([1]; tumor AUC0-168 h): ~9.3%
- maximum tolerated dose [2]: ~0.9 mg/kg
- tumor growth (MIA PaCa2 xenografts; 0.5 mg/kg MMAE equivalent, every 4 days, 4 doses): significantly delayed
- median survival of tumor-bearing mice (MIA PaCa2 xenografts; every 4 days, 4 doses): 114 days
- tumor growth compared to the MMAE-MAL treatment arm (MIA PaCa2 xenografts; 0.5 mg/kg, at 60 days): significantly retarded tumor growth
- tumors eradicated completely (mice) (MIA PaCa2 xenografts; 0.9 mg/kg (ALDC1-H), after 4 doses): 5 of the 6
- survival (MIA PaCa2 xenografts; 0.9 mg/kg, at 157 days): 100%
- complete eradication of the tumors in the treatment group (MIA PaCa2 xenografts; maximum tolerated dose of ALDC1): 83.33%
